Measured values: US20250326715A1, “NOVEL MAIN PROTEASE INHIBITORS, AND COMPOSITIONS AND METHODS THEREOF” (University of Massachusetts, priority 2023, published 2025)

Amino acid sequences for entries named in this document (tags omitted). Residues count along the entry.
UniProt P07711, 114-333: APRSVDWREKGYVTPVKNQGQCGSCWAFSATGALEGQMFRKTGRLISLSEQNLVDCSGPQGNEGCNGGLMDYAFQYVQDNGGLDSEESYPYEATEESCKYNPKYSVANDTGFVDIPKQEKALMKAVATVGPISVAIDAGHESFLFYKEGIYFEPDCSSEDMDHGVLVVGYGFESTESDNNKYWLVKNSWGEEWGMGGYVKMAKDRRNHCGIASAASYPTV

Columns and labels:
SARS-CoV-2 M^Pro = SARS-CoV-2 M^Pro (Severe acute respiratory syndrome coronavirus 2, UniProt P0DTD1); test: Determination of kinact/KI values for SARS-CoV-2 M^Pro (time- and concentration-dependent inactivation); format: biochemical; details: read-out: M^Pro kinact/KI
Procedure: where νo is the initial velocity of uninhibited reaction and νi is the initial velocity in the presence of inhibitor. All measurements were done in triplicate. Determination of kinact/KI values for SARS-CoV-2 M^Pro
Time- and concentration-dependent inactivation assays were done by following a similar protocol as described for Ki determination. M^Pro (12.5 nM final) was treated with the peptide-substrate (30 μM final) and test inhibitor (0-80 μM for D-FF(R/Cit)-(CMK/CMKyne); 0-1.25 mM for SM136-145) at time=0 to initiate inactivation process. The total volume of the assay mixture was 50 μL. Time-dependent increase in fluorescence was monitored at 485 nm with excitation at 340 nm for a period of 20-25 min. The observed rates (kobs) for the peptide cleavage in both the presence and absence of inhibitor were determined by fitting to a single-phase association equation. The resulting kobs values were plotted against the concentrations of inhibitor and linear fits were used to derive the slope that afforded the kinact/KI values. All measurements were done in triplicate.

Cathepsin L = target: T1, Cathepsin L (Homo sapiens, UniProt P07711); test: Cathepsin L inhibition assay kit (Abcam), IC50 and kinact/KI; format: biochemical
T1 construct: purchased Abcam ab197012
Procedure: Determination of IC50 and kinact/KI values for Cathepsins L and B
IC50 and kinact/KI values of the inhibitors were determined using commercially available inhibition assay kits (Abcam) by following the manufacturer's protocol. […] The observed rates (kobs) were determined by fitting to a single-phase association equation. The resulting kobs values were plotted against the concentrations of inhibitor and the data were fit to equation 2 to derive the kinact/KI values,
using GraphPad Prism, where kinact is the maximal rate of inactivation, KI is the concentration of inhibitor that affords half-maximal inactivation, and [I] is the concentration of inhibitor. When kobs with [I] varied linearly, kinact/KI was determined from the slope of the line. All the experiments were performed in triplicate. […] Crystallization of M^Pro in Complex with Inhibitors

## CCOC(=O)C=CC(CC1CCNC1=O)NC(=O)C(Cc1ccccc1)NC(=O)C(N)Cc1ccccc1 (stereo not drawn) [SM141]
SARS-CoV-2 M^Pro
  kinact/KI: 333 M⁻¹ s⁻¹
Cathepsin L
  potency for CatL inhibition relative to M^Pro (IC50 and kinact/KI): 10 fold
Cathepsin L; read-out: Cathepsin L kinact/KI
  kinact/KI: 3170 M⁻¹ s⁻¹
